Measured values as given in PMC3412067 (Journal of medicinal chemistry, 2012).

Amino acid sequences for entries named in this document (tags omitted).
UniProt P32300, whole entry: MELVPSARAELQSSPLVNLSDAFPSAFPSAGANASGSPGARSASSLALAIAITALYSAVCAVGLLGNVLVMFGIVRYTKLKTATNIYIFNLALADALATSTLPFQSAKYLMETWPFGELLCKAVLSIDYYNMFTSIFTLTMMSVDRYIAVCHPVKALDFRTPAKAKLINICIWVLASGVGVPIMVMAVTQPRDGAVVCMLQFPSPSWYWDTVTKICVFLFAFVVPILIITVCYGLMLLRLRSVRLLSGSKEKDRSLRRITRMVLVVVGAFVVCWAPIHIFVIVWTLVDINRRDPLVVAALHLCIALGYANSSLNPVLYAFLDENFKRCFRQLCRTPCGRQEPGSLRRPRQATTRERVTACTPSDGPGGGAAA

Target: DOR-1 (delta) (Mus musculus, UniProt P32300)
Test: Competition binding against 125I-BNtxA in CHO cells stably expressing DOR-1

Work on `C=CCN1CC[C@]23c4c5ccc(O)c4O[C@H]2[C@H](NC(=O)CCCCCCCCCCC)CC[C@@]3(O)[C@H]1C5` [Compound 35, 17-Allyl-3,14β-dihydroxy-4,5α-epoxy-6β-(dodecylamido)morphinan] yielded a Ki of 15.2 ± 0.38 nM.
